Laboratory results reported in patent US7632506B2, “Identification of new NY-ESO-1 epitopes recognized by CD4+ T-cells” (Ludwig Institute for Cancer Research, priority 2005, dated 2009).

Tested on: CD4+ T cells
Test: IFN-γ ELISPOT of CD4+ T cells presensitized with overlapping NY-ESO-1 18 mer peptides
Type: cell-based, human
Procedure: Peripheral blood mono-nuclear cells (“PBMCs”) were separated from heparinized blood via Ficoll density gradient separation, using standard, art recognized techniques. Once this was done, the CD4^+ and CD8^+ T cells were separated from each other using magnetic cell sorting techniques which are well known to the art, producing CD4^+, CD8^+, and CD4^−/CD8^− cell populations.
A series of 18 mer peptides were prepared from the amino acid sequence of NY-ESO-1 as set forth in, e.g., U.S. Pat. No. 5,804,381, incorporated by reference. The peptides were designed to cover the entire sequence of NY-ESO-1, and to provide overlap.
The peptides were then individually pulsed to antigen presenting cells (“APCs”). These were CD4^−/CD8^− PBMCs taken from the same subjects who had provided the CD4^+ and CD8^+ cells. These APCs were irradiated with 3000 rads, and then pulsed with one of the peptides, at a concentration of 10 μg/ml, for 1 hour, in serum free medium. These APCs were then washed, and added to the CD4^+ cells. In the pulsing experiments, the peptides were solubilized in DMSO (100%) and then diluted with PBS to a final concentration of 10% DMSO. The CD4^+ cells had been cultured in a medium of L-arginine (242 mg/l), L-asparagene (50 mg/l), L-glutamine (300 mg/l), penicillin (10 IU/ml), streptomycin (100 μg/ml), 1% non-essential amino acids, 10% HS, and 10 ng/ml of recombinant human IL-2.
The CD4^+ T cells were restimulated weekly with 1 μg/ml of the peptide being used. […] The number of blue spots/well represented the proportion of NY-ESO-1 specific CD4^+ T-cells/well was finally counted under the microscope.
The EBV-B-cells were generated from each patients' PBMC following standard methods and maintained in RPMI 1640 medium supplemented with 10 mM Hepes buffer, L-arginine (242 mg/l), L-asparagine (50mg/l), L-glutamine (300 mg/l), penicillin (10 IU/ml), streptomycin (100 μg/ml), 1% non-essential amino acids, and 10% FCS. All EBV-B-cells had been analyzed in RT-PCR for NY-ESO-1 mRNA expression and were negative except for the MZ-1257 EBV-B-cell line. […]

p121-138: synthetic 18 mer peptide, amino acids 121-138 of NY-ESO-1
− (− indicates <50 spots): Patient T cells 1 (day 12, CD4+ T cells of patient 1, autologous peptide pulsed EBV-B cells as targets) | Patient T cells 2 (day 12, CD4+ T cells of patient 2, autologous peptide pulsed EBV-B cells as targets) | Patient T cells 3 (day 12, CD4+ T cells of patient 3, autologous peptide pulsed EBV-B cells as targets)
